Earlier results, collected in patent US8946148B2, “Modified insulin polypeptides and their uses” (Ambrx, Inc., priority 2007, dated 2015).

Settings: pH range from 4.2 and 6.6

Question: For insulin, which solubility is on record?
Answer: clear reduction
